Among the data in patent US20230293639A1, “SYSTEMS, DEVICES, COMPOSITIONS, AND METHODS FOR TREATING DIABETES” (Abvance Therapeutics, Inc., priority 2020, published 2023) are gelling values, retold here.

Where two headings read alike, the source gives them in different places.

With `CSCC[C@H](NC(=O)[C@H](CC(C)C)NC(=O)[C@H](Cc1c[nH]c2ccccc12)NC(=O)[C@H](CCC(N)=O)NC(=O)[C@@H](NC(=O)[C@H](Cc1ccccc1)NC(=O)[C@H](CC(=O)O)NC(=O)[C@H](CCC(N)=O)NC(=O)[C@H](C)NC(=O)[C@H](CCCN=C(N)N)NC(=O)[C@H](CCCN=C(N)N)NC(=O)[C@H](CO)NC(=O)[C@H](CC(=O)O)NC(=O)[C@H](CC(C)C)NC(=O)[C@H](Cc1ccc(O)cc1)NC(=O)[C@H](CCCCN)NC(=O)[C@H](CO)NC(=O)[C@H](Cc1ccc(O)cc1)NC(=O)[C@H](CC(=O)O)NC(=O)[C@H](CO)NC(=O)[C@@H](NC(=O)[C@H](Cc1ccccc1)NC(=O)[C@@H](NC(=O)CNC(=O)[C@H](CCC(N)=O)NC(=O)[C@H](CO)NC(=O)[C@@H](N)Cc1c[nH]cn1)[C@@H](C)O)[C@@H](C)O)C(C)C)C(=O)N[C@@H](CC(N)=O)C(=O)N[C@H](C(=O)O)[C@@H](C)O` [glucagon], the gelling result (AB pH 3.65, no excipient) is “gelling was observed” and the gelling entry (AB pH 4.02, no excipient) was “gelling was observed”.
